Structure (SMILES): COc1cc(NS(C)(=O)=O)ccc1Nc1c2ccccc2nc2ccccc12 [sulfate, reference compound]
- Water-solubility (in words): only slightly soluble in water

— patent publication US4335244A, “Monolactate salts of 4'-(9-acridinylamino)methanesulfon-m-anisidide” (Bristol-Myers Company, priority 1980, dated 1982)
